Experiments:
Format in all cases: in vivo, human
[1] = Influence of meal on pharmacokinetics, single dose 450 mg; conditions: single dose 450 mg, healthy adult males
Protocol: The median tmax of this drug was prolonged by postprandial administration for about 1.5 hours as compared with fasting.

[2] = Phase I drug-drug interaction study with sevelamer carbonate; conditions: concurrent vadadustat and sevelamer carbonate; 90% CI 57.96-68.16
Protocol: A phase I, open-label, fixed-sequence study was conducted in healthy adult subjects to assess the effect of sevelamer carbonate as phosphate binders on the pharmacokinetics of a single dose of vadadustat.
Pharmacokinetics. A predose PK blood sample was collected on Day 1. […] The 48-hour postdose sample was collected before vadadustat administration on Days 3, 5, and 7. The following parameters were calculated and analyzed: AUC0-∞, AUC0-last, Cmax, Tmax, Kel, CIB, Vc/F, and t1/2.
Subjects were dosed approximately at the same designated time on each dosing day, where applicable. Study drugs were administered with approximately 8 ounces (240 mL) of water at room temperature in a seated position. Subjects were instructed to drink the full 8 ounces of water, and not to chew or break the tablets/gelcaps.
A single oral dose of vadadustat 300 mg (2×150 mg tablets) was administered on Days 1, 3, 5, and 7. Phosphate binder that is sevelamer carbonate (1600 mg, 2×800 mg tablets) was administered on Days 3, 5, and 7. […]

[3] = Phase I drug-drug interaction study with probenecid (Part 1, Arm 2); conditions: vadadustat 300 mg with vs without probenecid 500 mg Q12h
Protocol: (§1) A phase I, open-label, 2-part study was conducted in healthy male and female subjects to evaluate the potential for interaction of cyclosporine (Part 1, Arm 1), probenecid (Part 1, Arm 2), and rifampin (Part 2) with vadadustat.
Following a 2-day washout (Days 1 to 2), subjects received 1 oral probenecid 500 mg tablet Q12 h for 4 days (Days 3 to 6). On days that probenecid was administered alone (Days 3, 4, and 6), probenecid was administered in a fasted state 1 hour prior to a standard breakfast and 1 hour prior to an evening meal or snack. On Day 5, probenecid was co-administered with a single dose of vadadustat (300 mg as 2×150 mg tablets) following at least a 10-hour fast. Subjects remained fasted for at least 4 hours after dosing.
On days vadadustat was administered (Day 1 and Day 5), blood samples for PK analysis were collected up to 48 hours postdose. In addition, on vadadustat dosing days, pooled urine samples were collected up to 24 hours post-dose. Subjects were discharged from the CRU on the morning of Day 7, after the final 48-hour post-dose PK sample had been collected. A follow-up phone call was conducted 30 days±2 days after the final dose.

[4] = Phase I drug-drug interaction study with cyclosporine (Part 1, Arm 1); conditions: vadadustat 300 mg with vs without cyclosporine 500 mg
Protocol: as §1
Subjects were randomized in a 1:1 ratio to 1 of 2 dosing sequences (A:B or B:A) to receive vadadustat 300 mg alone and vadadustat 300 mg in combination with oral cyclosporine 500 mg in a crossover design. Study drugs were administered in the morning after at least a 10-hour overnight fast. Subjects remained fasted for at least 4 hours post-dose. • Treatment A: a single oral dose of vadadustat (300 mg) administered as 2×150 mg tablets. • Treatment B: a single oral dose of vadadustat (300 mg) administered as 2×150 mg tablets co-administered with a single oral dose of cyclosporine (500 mg) administered as 5×100 mg capsules.
On the morning of Day 1, subjects received the first treatment (A or B). Following a 7-day washout, subjects crossed over to Period 2 to receive the second treatment of the dosing sequence (A or B) on Day 8.
On each dosing day (Day 1 and Day 8) blood samples for PK analysis were collected up to 48 hours post-dose. […] A follow-up phone call was conducted 30 days±2 days after the final dose.

## O=C(O)CNC(=O)c1ncc(-c2cccc(Cl)c2)cc1O [Compound 1, {[5-(3-chlorophenyl)-3-hydroxypyridine-2-carbonyl]amino}acetic acid]
[1]; 90% CI [68%, 79%]
  Ratio of the geometric mean of Cmax, fasted or fed: 73%
[1]; 90% CI [90%, 98%]
  Ratio of the geometric mean of AUC0-inf, fasted or fed: 94%
[2]
  geometric LS mean ratio of AUC0-∞ to vadadustat alone: 62.85%
[3]
  AUCinf, Ratio (V + P)/V: 182.13%
  AUClast, Ratio (V + P)/V: 178.95%
  Cmax, Ratio (V + P)/V: 102.79%
[4]
  AUCinf, Ratio (V + C)/V: 116.89%
  AUClast, Ratio (V + C)/V: 116.97%
  Cmax, Ratio (V + C)/V: 81.76%

From patent publication US20240148707A1, “MODULATION OF DRUG-DRUG INTERACTIONS OF VADADUSTAT” (Akebia Therapeutics, Inc., priority 2021, published 2024)
